Only a part is listed here, and it is no random draw. Some tests of the compounds listed are not included; inactive here does not mean inactive elsewhere. Activity calls are given as the source filed them. Calls follow the shape of the dose curve; as a rule, active = well fitted activation curve with a large enough effect; inconclusive = small, poorly fitted or top-dose-only effect; inactive = no such curve, though single readings can be large or run the other way.
Test: qHTS Assay to Identify Small Molecule Activators of BRCA1 Expression; also: nearly all actives have a fitted effect of over 80% in size
Conditions: MCF7-BRCA1-FFLuc reporter, luminescence, 48 h, scaled: vehicle 0%, 10 µM genistein 100%; at 46.1 µM (top of the series)

Structure (SMILES) | activation
Cc1ccccc1C(=O)NCC1(N2CCCCC2)CCCCC1 | inactive: -7.7%
CN(C)C1(CNC(=O)c2ccccc2[N+](=O)[O-])CCCCC1 | inactive: 14.2%
CN(C)c1ccc(C(=O)NCC2(N(C)C)CCCCC2)cc1 | inactive: 22.5%
CN(C)C1CCCC1OC(=O)C(O)(c1ccccc1)c1ccccc1 (stereo not drawn) | inactive: -16.7%
CCCCOc1ccccc1C(=O)NCC1(N(C)C)CCCCC1 | inactive: -0.377%
C=CCN1CCN(CCOC(=O)C(O)(c2ccccc2)c2ccccc2)CC1 | inactive: -3.55%
O=C(NCC1(N2CCCCC2)CCCCC1)c1cc(F)c(F)cc1Cl | inactive: -9.77%
COc1ccc(C(=O)NCC2(N(C)C)CCCCC2)cc1 | inactive: 12.5%
CCOc1cccc(C(=O)NCC2(N(C)C)CCCCC2)c1 | inactive: 6.48%
CCN1CCCC(OC(=O)C2(O)c3ccccc3C=Cc3ccccc32)C1 (stereo not drawn) | inactive: -1.98%
Cc1cc(C(=O)NCC2(N3CCCCC3)CCCCC2)ccc1[N+](=O)[O-] | inactive: -16.2%
O=C(NCC1(N2CCCCC2)CCCCC1)c1cccc(Br)c1 | inactive: -29%
O=C(NCC1(N2CCCCC2)CCCCC1)c1cc([N+](=O)[O-])ccc1Cl | inactive: 1.11%
CN1[C@@H]2CC[C@H]1CC(OC(=O)C(O)(c1ccccc1)c1ccccc1)C2 (stereo partly drawn) | inactive: -7.18%
CN(C)C1(CNC(=O)c2cccc(Cl)c2)CCCCC1 | inactive: -12.5%
CCN(CC)CC(C)C(C)OC(=O)C(O)(c1ccccc1)c1ccccc1 (stereo not drawn) | inactive: 0%
COc1cc(SC)ccc1C(=O)NCC1(N(C)C)CCCCC1 | inactive: -22.9%

Structure (SMILES) | activation
CC(C)N1C(=O)CC2(CCN(CCOC(=O)C(O)(c3ccccc3)c3ccccc3)CC2)C1=O | inactive: -2.56%
Cc1ccc(C(=O)NCC2(N3CCCCC3)CCCCC2)cc1 | inactive: -14.7%
CN(C)C1(CNC(=O)c2ccccc2F)CCCCC1 | inactive: 3.26%
COc1cccc(C(=O)NCC2(N3CCOCC3)CCCCC2)c1 | inactive: -16%
O=C(OC1CN2CCC1CC2)C(CO)(c1ccccc1)c1ccccc1 (stereo not drawn) | inactive: 4.01%
C=C(C)C#CC(O)(C(=O)OC1CCN(C)CC1)c1ccccc1 (stereo not drawn) | inactive: 31.7%
COc1ccc(Br)c(C(=O)NCC2(N3CCCCC3)CCCCC2)c1 | inactive: 4.89%
CC(C)Oc1ccc(C(=O)NCC2(N(C)C)CCCCC2)cc1 | inactive: 9.74%
O=C(OCCN1CCCC1)C(O)(c1ccccc1)c1ccccc1 | inactive: -7.35%
CN(C)c1cccc(C(=O)NCC2(N(C)C)CCCCC2)c1 | inactive: -12.5%
O=C(CBr)c1ccc(Cl)cc1 | inactive: 3.63%
CN(C)C1(CNC(=O)c2ccc(Br)cc2)CCCCC1 | inactive: -8.97%
COc1cc(C(=O)NCC2(N(C)C)CCCCC2)c([N+](=O)[O-])cc1OC | inactive: -3.6%
COc1cccc(C(=O)NCC2(N3CCCCC3)CCCCC2)c1 | inactive: -1.89%
COc1ccc(Cl)cc1C(=O)NCC1(N(C)C)CCCCC1 | inactive: -3.12%
O=C(NCC1(N2CCCCC2)CCCCC1)c1cccc(Cl)c1 | inactive: -30%
